## AlphaSeq binding of Ab-14 light chain variants to a spike HR2 peptide

The measurements come from Engelhart et al. 2022 (doi:10.1038/s41597-022-01779-4) through the FLAb antibody collection.

All variants were tested on one target, the spike HR2 peptide PDVDLGDISGINAS (SARS-CoV-2).

Ab-14 is the parent antibody, in scFv form: VH, then the linker GGGGSGGGGSGGGGS, then VL. The heavy chain is unchanged in all variants.
VH: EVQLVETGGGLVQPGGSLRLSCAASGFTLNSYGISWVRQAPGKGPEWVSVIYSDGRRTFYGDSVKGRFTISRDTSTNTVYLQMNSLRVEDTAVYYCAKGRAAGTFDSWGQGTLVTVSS
VL: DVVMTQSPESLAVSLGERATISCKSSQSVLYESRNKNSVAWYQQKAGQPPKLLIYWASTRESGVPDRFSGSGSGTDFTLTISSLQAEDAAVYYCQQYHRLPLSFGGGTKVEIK

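The starting antibody came from a phage panning campaign against this peptide. Variants in AAYL50 differ from the parent at up to three CDR positions; double and triple changes were sampled at random. The assay is AlphaSeq: two haploid yeast populations carry antibody and antigen on their surface. The frequency of each diploid, read from paired DNA barcodes, reflects how well the two displayed proteins bind. The ratio of observed to expected reads was calibrated, replicate by replicate, on BCL2-family standards whose Kd was known from biolayer interferometry. There are three technical replicates.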

Each variant is given by its three light chain CDRs, as the data file delimits them; those of the parent are KSSQSVLYESRNKNSVA, WASTRES, QQYHRLPLS.
Every variant below is changed at S33 of the VL (sequential numbering).
Kd is apparent (estimated from mating counts) and averaged on the log scale over replicates with a signal. Smaller is tighter.
"no signal" means that the variant was in the library but no mating with the target was seen in any replicate; the authors take this as a sign of poor binding, and no number exists.
Three control strains display no target. For library AAYL50, 18% of the pairings with them gave a signal, with a median of 15 µM and one signal in twenty below 970 nM, so weak values seen in few replicates may be background.

The variant KSSQSVLYMCRNKNSVA / WASTRLS / QQYHRLPLS showed no signal (0 of 3 replicates). With ESSQSVLYEERNKNSVA / WASTRGS / QQYHRLPLS the result was 100 µM (1 of 3 replicates). For KSSQSVQYEARNKNSVA / WASTRES / QQYHCLPLS, the assay gave 98 nM (3 of 3 replicates). For KSGQSVLYEERNKNSVA / WASTRES / QQYHRHPLS, the assay gave no signal (0 of 3 replicates). With KSSQSVLYERRPKHSVA / WASTRES / QQYHRLPLS the result was no signal (0 of 3 replicates). For KSSQSVLYEGRNKSSVA / WAGTRES / QQYHRLPLS, the assay gave 7.1 nM (1 of 3 replicates). The variant KSSQSVLYEFRNKNSVC / WASTRES / WQYHRLPLS gave 27 µM (1 of 3 replicates).

With KSSQSKLYECRNKNSVA / WASTRES / QQYHRLPLS the result was 1.7 µM (1 of 3 replicates). The variant KSSQSVLYEERNKNHVA / WASTRES / QQYHRLPLS showed 43 nM (3 of 3 replicates). The variant KSSQSVLYELRNKNSVA / WASTRES / QQYFRLPLS showed 4.8 µM (2 of 3 replicates). The variant KSSQSVLYEGRNRNSVA / WASTRES / NQYHRLPLS gave 1.2 µM (1 of 3 replicates). For KSSQSVLYERRNKNSVD / WASTRES / QQYHRLPLS, the assay gave 2.1 µM (1 of 3 replicates). The variant KSSQSVLYETRNKNSVA / WASTREN / VQYHRLPLS gave 7.8 nM (3 of 3 replicates). With KYSQSVLYENRNKNSVA / PASTRES / QQYHRLPLS the result was no signal (0 of 3 replicates).

With KSSQSVLFEMRNKNSVA / WASTDES / QQYHRLPLS the result was 100 µM (1 of 3 replicates). The variant KSSQSVLYEERIKNSVA / WASTRES / QQYHRLPLS showed no signal (0 of 3 replicates). With KSSWSVLYEHRNKNSVA / WASTRES / QQYHSLPLS the result was 21 nM (3 of 3 replicates). For KDSQPVLYETRNKNSVA / WASTRES / QQYHRLPLS, the assay gave 17 nM (3 of 3 replicates). With KSSQSVLYETRNKNSYA / WFSTRES / QQYHRLPLS the result was no signal (0 of 3 replicates). With KASQSVLYETRNKNSVA / WASTRES / QQYQRLPLS the result was 5.0 nM (3 of 3 replicates). With KSSQSVLYERRNKNSVA / WASTRES / QQYHRLPLS the result was 65 nM (3 of 3 replicates).

For KSSQSVLYEMRNKNSVA / WASTRPS / QQRHRLPLS, the assay gave no signal (0 of 3 replicates). The variant KASQSVLYNWRNKNSVA / WASTRES / QQYHRLPLS showed 390 nM (3 of 3 replicates). The variant KSSQSVLYERRNKNSVV / WASTRES / QQYHRLPLS gave 430 µM (1 of 3 replicates). The variant KSSQSVLYEERCKNSVA / WASTRES / QQYHRLPIS showed 28 nM (3 of 3 replicates). For KCSQSVLYEVRNKNSVA / WASTEES / QQYHRLPLS, the assay gave no signal (0 of 3 replicates). With KSSQSNIYECRNKNSVA / WASTRES / QQYHRLPLS the result was 6.4 µM (1 of 3 replicates). The variant KSSQSVLYEIRNKNSVA / WASTRES / QQYHRLPLS showed 28 µM (3 of 3 replicates).

With KSSQSVLYEQRNKNSVA / WAHTRES / QQYHRLSLS the result was 11 nM (3 of 3 replicates). For KSSQSVLYEGRNKNSVA / WASTRES / QQYHRWPRS, the assay gave no signal (0 of 3 replicates). The variant KSSQSVLYECRNKNSVA / WASTRLS / QQYVRLPLS gave 19 µM (2 of 3 replicates). For KSSQSVWYEFRNKNSVP / WASTRES / QQYHRLPLS, the assay gave no signal (0 of 3 replicates). With KSSQSVLYETRNKESVA / WASTRES / QQYHRLPLS the result was 30 nM (3 of 3 replicates). With KSSQSVLYETRNKNSVA / WASTRGS / QQYHRLPLS the result was 72 nM (3 of 3 replicates). With KSSQSVLYEQRNQNSVA / WASTRES / QQYHRLPLS the result was 5.5 nM (3 of 3 replicates).

For KESQSVLYEMRNKNSQA / WASTRES / QQYHRLPLS, the assay gave 27 µM (1 of 3 replicates). The variant KSSQSVLYEFRNKNSVA / WASTRES / QQYHPLPLS gave 360 µM (3 of 3 replicates). The variant KSSQSVLYEHRNKNSVA / CASTRES / IQYHRLPLS showed 7.2 µM (1 of 3 replicates). The variant KSSQFVLYEGRNKNSVA / WASTRES / QAYHRLPLS showed 5.5 nM (3 of 3 replicates). The variant KQSQSVLYEKRNKNSVA / WASTRDS / QQYHRLPLS showed 110 nM (3 of 3 replicates). With KSSQSVLYELRMKNSVA / WASTRES / NQYHRLPLS the result was no signal (0 of 3 replicates). With KSSQSSLYEDRNKNSVA / WISTRES / QQYHRLPLS the result was 9.3 µM (3 of 3 replicates).